Laboratory results published in patent EP0303391B1, “Optical isomers of a spiroquinuclidine derivative” (State of Israel Represented by the Prime Minister's Office …, priority 1987, dated 1989).

Legend:
[1] = target: muscarinic receptors; format: binding; details: rat forebrain homogenates, mean ± spread (n), Ki = IC50 ÷ (1 + C/KD), read-out: Ki(^3H-QNB)
[2] = target: muscarinic receptors; assay: Displacement of 3H-cis-dioxolane (3H-CD) from rat forebrain homogenates; format: binding; details: mean ± spread (n), Ki = IC50 ÷ (1 + C/KD)

In the case of `CC1OC2(CS1)CN1CCC2CC1` (racemic) [(±)-cis-isomer, (±)-cis-2-methylspiro(1,3-oxathiolan-5,3')quinuclidine], the Ki ([1]; listed as 4) is reported as 6.3 ± 1 µM and the Ki ([2]; listed as 4) is reported as 0.45 ± 0.18 µM.

`CC1OC2(CS1)CN1CCC2CC1` (racemic) [(±)-trans-isomer, (±)-trans-2-methylspiro(1,3-oxathiolan-5,3')quinuclidine] was tested, and the Ki ([1]; listed as 3) was 24.7 ± 2.3 µM and the Ki ([2]; listed as 3) was 1.8 ± 0.1 µM.

`CC1OC2(CS1)CN1CCC2CC1` (single isomer, unassigned; (+)) [(+)-cis-isomer, (+)-cis-2-methylspiro(1,3-oxathiolan-5,3')quinuclidine] showed a Ki ([1]; listed as 6) of 36.4 ± 8 µM and a Ki ([2]; listed as 6) of 7.5 µM.

Compound `CC1OC2(CS1)CN1CCC2CC1` (single isomer, unassigned; (-)) [(-)-cis-isomer, (-)-cis-2-methylspiro(1,3-oxathiolan-5,3')quinuclidine] has a Ki ([1]; listed as 5) of 3.5 ± 1.5 µM and a Ki ([2]; listed as 5) of 0.21 ± 0.06 µM.

Where two headings read alike, the source gives them in different places.
